Test results published in patent US9193762B2, “Selective inhibitors of prolylcarboxypeptidase” (UNIVERSITY OF MISSISSIPPI, priority 2010, dated 2015).

Key:
[1] = test system: prostacyclin (PGI2) generation on HPAEC; conditions: 100 μM, HPAEC with HK/PK
Description: The absorbance was measured spectrophotometrically at 405 nm.

[2] = test system: nitric oxide formation on HPAEC

CCCCCCCCCCCCNC(=O)[C@@H]1CCCN1C(=O)[C@@H]1CCCN1.Cl [RS-33-21, (S)—N-dodecyl-1-((S)-pyrrolidine-2-carbonyl)pyrrolidine-2-carboxamide hydrochloride]
reduction of PGI2 production [1]: 80% | PRCP-induced NO formation (in words) [2]: inhibited PRCP-induced NO formation | reduction of NO production ([2]; 100 μM, HPAEC with HK/PK): 80%
